ChEMBL document CHEMBL5226283, “Reactive Oxygen Species (ROS)-Responsive Prodrugs, Probes, and Theranostic Prodrugs: Applications in the ROS-Related Diseases” (J Med Chem, 2021)

Experiments:
[1] = test system: DNA; assay: Induction of ROS-mediated DNA (unknown origin) assessed as efficiency of ICL formation preincubated with compounds followed by H2O2 addition relative to control; assay type: functional
[2] = test system: DNA; assay: Induction of ROS-mediated DNA (unknown origin) ICL formation by measuring rate constant preincubated with compounds followed by H2O2 addition; assay type: functional

C[N+](CCCl)(CCCl)Cc1ccc(B(O)O)cc1
Activity [1]: 43% | K [2]: 4.7 10^-5/s
